The source of these data is ChEMBL document CHEMBL2429762, “Structure-activity relationship study of indole-2-carboxamides identifies a potent allosteric modulator for the cannabinoid receptor 1 (CB1)” (J Med Chem, 2013).

Amino acid sequences for entries named in this document (tags omitted).
UniProt P21554, whole entry: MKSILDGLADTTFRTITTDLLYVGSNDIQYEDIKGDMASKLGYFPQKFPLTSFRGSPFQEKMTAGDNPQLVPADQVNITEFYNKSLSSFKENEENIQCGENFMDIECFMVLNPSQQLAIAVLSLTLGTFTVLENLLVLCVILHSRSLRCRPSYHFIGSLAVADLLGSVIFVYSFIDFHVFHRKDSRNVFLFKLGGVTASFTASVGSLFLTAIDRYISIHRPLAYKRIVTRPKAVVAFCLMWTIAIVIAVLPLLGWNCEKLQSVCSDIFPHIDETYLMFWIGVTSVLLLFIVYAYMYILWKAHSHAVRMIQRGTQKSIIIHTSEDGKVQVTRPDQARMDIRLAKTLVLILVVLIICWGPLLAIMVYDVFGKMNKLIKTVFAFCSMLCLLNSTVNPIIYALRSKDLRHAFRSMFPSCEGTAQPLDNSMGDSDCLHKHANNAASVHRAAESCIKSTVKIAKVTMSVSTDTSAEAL

The assay has as its target Cannabinoid receptor 1 (Homo sapiens) (UniProt P21554). Nature of the assay: Positive allosteric modulation of CB1 receptor (unknown origin) expressed in HEK293 cell membranes assessed as stimulation of [3H]CP55,940 binding after 60 mins by liquid scintillation counting analysis. The essentials: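 Nonspecific binding was taken with 1 μM unlabeled CP55,940. Samples were filtered on GF/C and counted by scintillation. Runs were in duplicate, ≥3 experiments. α and KB came from nonlinear regression to the allosteric ternary complex model, with [A] and KA fixed.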

For `CCCCCc1c(C(=O)NCCc2ccc(N3CCCCC3)cc2)[nH]c2ccc(Cl)cc12`, the Kb stood at 470 nM.
